Key:
[1] = biological target: DCAMKL1 (Homo sapiens, UniProt O15075); test: biochemical; details: read-out: Percent Control
[2] = biological target: CAMK1D (Homo sapiens, UniProt Q8IU85); test: biochemical; details: read-out: Percent Control
[3] = biological target: CAMK2G (Homo sapiens, UniProt Q13555); test: biochemical; details: read-out: Percent Control
[4] = biological target: EPHA7 (Homo sapiens, UniProt Q15375); test: biochemical; details: read-out: Percent Control
[5] = biological target: EGFR(L747-S752del, P753S) (Homo sapiens, UniProt P00533, DEL747-752/P753S); test: biochemical; details: read-out: Percent Control
[6] = biological target: HIPK3 (Homo sapiens, UniProt Q9H422); test: biochemical; details: read-out: Percent Control
[7] = biological target: MERTK (Homo sapiens, UniProt Q12866); test: biochemical; details: read-out: Percent Control
[8] = biological target: SRPK1 (Homo sapiens, UniProt Q96SB4); test: biochemical; details: read-out: Percent Control
[9] = biological target: JAK1(JH1domain-catalytic) (Homo sapiens, UniProt P23458); test: biochemical; details: read-out: Percent Control
[10] = biological target: MLK3 (Homo sapiens, UniProt Q16584); test: biochemical; details: read-out: Percent Control
[11] = biological target: PIP5K2C (Homo sapiens, UniProt Q8TBX8); test: biochemical; details: read-out: Percent Control
[12] = biological target: CDK7 (Homo sapiens, UniProt P50613); test: biochemical; details: read-out: Percent Control
[13] = biological target: NIM1 (Homo sapiens, UniProt Q8IY84); test: biochemical; details: read-out: Percent Control
[14] = biological target: FLT3(R834Q) (Homo sapiens, UniProt P36888, R834Q); test: biochemical; details: read-out: Percent Control
[15] = biological target: CTK (Homo sapiens, UniProt P42679); test: biochemical; details: read-out: Percent Control
[16] = biological target: YANK2 (Homo sapiens, UniProt Q9NY57); test: biochemical; details: read-out: Percent Control
[17] = biological target: DYRK1B (Homo sapiens, UniProt Q9Y463); test: biochemical; details: read-out: Percent Control
[18] = biological target: ERBB2 (Homo sapiens, UniProt P04626); test: biochemical; details: read-out: Percent Control
[19] = tested on: FLT3(ITD,F691L)
[20] = biological target: MLK1 (Homo sapiens, UniProt P80192); test: biochemical; details: read-out: Percent Control
[21] = biological target: TYK2(JH1domain-catalytic) (Homo sapiens, UniProt P29597); test: biochemical; details: read-out: Percent Control
[22] = biological target: PAK3 (Homo sapiens, UniProt O75914); test: biochemical; details: read-out: Percent Control
[23] = biological target: EPHB3 (Homo sapiens, UniProt P54753); test: biochemical; details: read-out: Percent Control
[24] = biological target: NEK3 (Homo sapiens, UniProt P51956); test: biochemical; details: read-out: Percent Control
[25] = biological target: TAOK2 (Homo sapiens, UniProt Q9UL54); test: biochemical; details: read-out: Percent Control
[26] = biological target: RSK4(Kin.Dom.1-N-terminal) (Homo sapiens, UniProt Q9UK32); test: biochemical; details: read-out: Percent Control
[27] = biological target: ADCK3 (Homo sapiens, UniProt Q8NI60); test: biochemical; details: read-out: Percent Control
[28] = biological target: WEE1 (Homo sapiens, UniProt P30291); test: biochemical; details: read-out: Percent Control
[29] = biological target: FLT3(N841I) (Homo sapiens, UniProt P36888, N841I); test: biochemical; details: read-out: Percent Control
[30] = biological target: EIF2AK1 (Homo sapiens, UniProt Q9BQI3); test: biochemical; details: read-out: Percent Control
[31] = biological target: MLCK (Homo sapiens, UniProt Q32MK0); test: biochemical; details: read-out: Percent Control
[32] = biological target: CDK5 (Homo sapiens, UniProt Q00535); test: biochemical; details: read-out: Percent Control
[33] = biological target: PCTK3 (Homo sapiens, UniProt Q07002); test: biochemical; details: read-out: Percent Control
[34] = biological target: WNK2 (Homo sapiens, UniProt Q9Y3S1); test: biochemical; details: read-out: Percent Control
[35] = biological target: STK35 (Homo sapiens, UniProt Q8TDR2); test: biochemical; details: read-out: Percent Control
[36] = biological target: FES (Homo sapiens, UniProt P07332); test: biochemical; details: read-out: Percent Control
[37] = biological target: LYN (Homo sapiens, UniProt P07948); test: biochemical; details: read-out: Percent Control
[38] = biological target: TGFBR2 (Homo sapiens, UniProt P37173); test: biochemical; details: read-out: Percent Control
[39] = biological target: ROS1 (Homo sapiens, UniProt P08922); test: biochemical; details: read-out: Percent Control
[40] = biological target: LKB1 (Homo sapiens, UniProt Q15831); test: biochemical; details: read-out: Percent Control
[41] = biological target: NEK5 (Homo sapiens, UniProt Q6P3R8); test: biochemical; details: read-out: Percent Control
[42] = biological target: PIK4CB (Homo sapiens, UniProt Q9UBF8); test: biochemical; details: read-out: Percent Control
[43] = biological target: RIPK5 (Homo sapiens, UniProt Q6XUX3); test: biochemical; details: read-out: Percent Control

By UniProt entry, the sequences of proteins in these tests, tags left out. Where a name states a change or a piece, a line headed by the entry shows the natural chain unless it says otherwise. Residues count along the entry.
UniProt O15075: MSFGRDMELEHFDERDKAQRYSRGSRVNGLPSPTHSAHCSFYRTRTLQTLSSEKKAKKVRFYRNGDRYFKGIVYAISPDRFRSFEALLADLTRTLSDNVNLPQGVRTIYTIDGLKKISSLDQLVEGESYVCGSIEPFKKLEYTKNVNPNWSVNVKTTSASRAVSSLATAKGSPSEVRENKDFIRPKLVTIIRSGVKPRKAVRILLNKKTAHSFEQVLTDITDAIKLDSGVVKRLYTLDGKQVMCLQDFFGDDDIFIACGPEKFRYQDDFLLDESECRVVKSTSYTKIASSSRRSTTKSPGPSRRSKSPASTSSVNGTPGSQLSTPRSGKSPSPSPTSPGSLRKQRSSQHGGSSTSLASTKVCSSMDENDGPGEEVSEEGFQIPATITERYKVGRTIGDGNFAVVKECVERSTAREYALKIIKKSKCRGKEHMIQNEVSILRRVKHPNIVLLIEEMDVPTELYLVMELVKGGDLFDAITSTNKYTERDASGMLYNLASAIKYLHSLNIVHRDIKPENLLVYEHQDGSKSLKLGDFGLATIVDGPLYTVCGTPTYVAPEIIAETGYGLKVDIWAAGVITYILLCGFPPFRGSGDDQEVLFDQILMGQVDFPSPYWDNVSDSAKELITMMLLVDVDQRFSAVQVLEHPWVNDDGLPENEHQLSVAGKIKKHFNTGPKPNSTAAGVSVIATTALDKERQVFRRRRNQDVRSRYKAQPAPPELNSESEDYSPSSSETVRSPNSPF
UniProt Q8IU85: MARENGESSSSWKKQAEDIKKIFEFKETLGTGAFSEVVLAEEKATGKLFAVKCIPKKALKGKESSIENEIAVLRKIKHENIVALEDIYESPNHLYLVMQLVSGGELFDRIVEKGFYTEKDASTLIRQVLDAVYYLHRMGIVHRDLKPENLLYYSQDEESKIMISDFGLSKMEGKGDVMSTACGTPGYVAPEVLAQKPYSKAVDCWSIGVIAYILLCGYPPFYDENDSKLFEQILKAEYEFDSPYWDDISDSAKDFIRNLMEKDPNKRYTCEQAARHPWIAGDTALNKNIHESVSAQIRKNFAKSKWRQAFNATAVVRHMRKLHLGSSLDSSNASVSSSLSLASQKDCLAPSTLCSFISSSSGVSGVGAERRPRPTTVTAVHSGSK
UniProt Q13555: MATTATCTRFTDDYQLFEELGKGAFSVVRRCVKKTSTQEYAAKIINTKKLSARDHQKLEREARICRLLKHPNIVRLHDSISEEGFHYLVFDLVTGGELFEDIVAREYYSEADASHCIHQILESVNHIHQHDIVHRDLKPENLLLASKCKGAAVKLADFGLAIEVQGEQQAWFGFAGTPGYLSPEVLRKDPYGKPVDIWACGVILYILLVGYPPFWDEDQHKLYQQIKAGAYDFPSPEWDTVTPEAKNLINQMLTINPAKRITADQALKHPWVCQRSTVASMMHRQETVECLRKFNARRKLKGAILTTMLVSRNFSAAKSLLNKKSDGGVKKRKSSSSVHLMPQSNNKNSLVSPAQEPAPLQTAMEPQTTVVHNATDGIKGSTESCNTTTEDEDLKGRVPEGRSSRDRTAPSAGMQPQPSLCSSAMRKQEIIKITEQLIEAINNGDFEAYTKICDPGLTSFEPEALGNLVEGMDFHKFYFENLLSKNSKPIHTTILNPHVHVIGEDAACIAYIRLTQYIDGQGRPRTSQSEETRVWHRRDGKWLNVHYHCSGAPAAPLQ
UniProt Q9H422: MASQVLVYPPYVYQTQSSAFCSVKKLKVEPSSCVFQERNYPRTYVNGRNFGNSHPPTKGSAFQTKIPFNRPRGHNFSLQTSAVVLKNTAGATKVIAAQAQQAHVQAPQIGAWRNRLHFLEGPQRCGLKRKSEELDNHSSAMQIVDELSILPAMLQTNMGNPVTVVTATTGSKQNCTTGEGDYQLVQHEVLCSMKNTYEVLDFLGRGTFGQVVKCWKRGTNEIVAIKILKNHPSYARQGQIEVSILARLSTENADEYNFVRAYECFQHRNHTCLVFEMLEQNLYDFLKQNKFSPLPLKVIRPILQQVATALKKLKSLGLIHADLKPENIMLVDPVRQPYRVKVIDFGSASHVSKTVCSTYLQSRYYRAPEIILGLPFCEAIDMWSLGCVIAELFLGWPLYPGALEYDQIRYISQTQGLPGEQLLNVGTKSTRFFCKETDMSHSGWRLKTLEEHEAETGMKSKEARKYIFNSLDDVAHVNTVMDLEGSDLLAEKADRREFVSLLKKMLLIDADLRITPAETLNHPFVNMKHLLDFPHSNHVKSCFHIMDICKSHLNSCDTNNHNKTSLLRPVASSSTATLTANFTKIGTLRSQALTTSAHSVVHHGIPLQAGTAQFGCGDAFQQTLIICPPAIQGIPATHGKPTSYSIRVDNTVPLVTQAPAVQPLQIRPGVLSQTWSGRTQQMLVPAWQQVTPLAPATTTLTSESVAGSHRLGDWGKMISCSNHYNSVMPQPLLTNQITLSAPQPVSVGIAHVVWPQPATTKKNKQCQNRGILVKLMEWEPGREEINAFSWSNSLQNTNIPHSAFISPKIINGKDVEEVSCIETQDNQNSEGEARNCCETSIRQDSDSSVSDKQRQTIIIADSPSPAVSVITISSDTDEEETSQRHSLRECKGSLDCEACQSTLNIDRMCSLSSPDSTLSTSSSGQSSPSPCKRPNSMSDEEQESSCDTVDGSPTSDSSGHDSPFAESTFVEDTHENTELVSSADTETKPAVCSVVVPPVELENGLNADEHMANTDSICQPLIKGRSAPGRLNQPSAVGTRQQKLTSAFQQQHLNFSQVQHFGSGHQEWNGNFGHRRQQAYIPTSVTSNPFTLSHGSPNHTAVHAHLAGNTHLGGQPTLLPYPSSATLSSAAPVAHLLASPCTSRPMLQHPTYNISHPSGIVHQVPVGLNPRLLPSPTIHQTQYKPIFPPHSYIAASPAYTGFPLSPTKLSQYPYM
UniProt Q8TBX8: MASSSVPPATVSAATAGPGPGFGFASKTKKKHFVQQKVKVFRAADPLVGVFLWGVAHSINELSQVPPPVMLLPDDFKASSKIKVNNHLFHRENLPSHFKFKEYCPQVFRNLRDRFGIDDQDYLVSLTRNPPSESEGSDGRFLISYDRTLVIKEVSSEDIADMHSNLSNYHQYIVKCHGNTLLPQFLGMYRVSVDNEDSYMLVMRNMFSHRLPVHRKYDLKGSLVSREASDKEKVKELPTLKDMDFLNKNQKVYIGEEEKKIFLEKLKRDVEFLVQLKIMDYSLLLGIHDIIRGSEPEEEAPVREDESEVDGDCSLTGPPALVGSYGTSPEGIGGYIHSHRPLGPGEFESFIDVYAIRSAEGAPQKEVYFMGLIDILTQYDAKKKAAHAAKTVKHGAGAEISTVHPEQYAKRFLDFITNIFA
UniProt P50613: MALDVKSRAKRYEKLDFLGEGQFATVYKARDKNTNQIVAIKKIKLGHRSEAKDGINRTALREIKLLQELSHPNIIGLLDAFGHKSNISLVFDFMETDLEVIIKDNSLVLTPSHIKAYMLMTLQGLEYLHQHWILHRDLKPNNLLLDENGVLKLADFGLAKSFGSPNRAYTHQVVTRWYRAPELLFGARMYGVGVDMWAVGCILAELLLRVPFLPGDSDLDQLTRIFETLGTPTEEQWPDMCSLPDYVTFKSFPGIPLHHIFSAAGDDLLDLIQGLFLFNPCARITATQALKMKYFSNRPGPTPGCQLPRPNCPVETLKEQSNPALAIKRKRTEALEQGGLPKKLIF
UniProt Q9NY57, whole entry: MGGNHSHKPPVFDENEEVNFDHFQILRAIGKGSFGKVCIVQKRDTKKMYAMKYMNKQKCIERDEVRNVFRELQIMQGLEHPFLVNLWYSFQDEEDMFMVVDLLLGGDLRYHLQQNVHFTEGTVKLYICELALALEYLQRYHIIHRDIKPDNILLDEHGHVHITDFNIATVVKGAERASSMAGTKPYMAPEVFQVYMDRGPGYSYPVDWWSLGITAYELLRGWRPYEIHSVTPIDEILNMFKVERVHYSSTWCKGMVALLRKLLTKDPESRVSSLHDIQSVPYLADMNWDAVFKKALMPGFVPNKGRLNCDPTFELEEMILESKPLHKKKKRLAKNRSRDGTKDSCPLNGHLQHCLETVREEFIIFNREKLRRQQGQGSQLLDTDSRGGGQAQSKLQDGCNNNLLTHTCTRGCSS
UniProt Q8NI60, 163-647: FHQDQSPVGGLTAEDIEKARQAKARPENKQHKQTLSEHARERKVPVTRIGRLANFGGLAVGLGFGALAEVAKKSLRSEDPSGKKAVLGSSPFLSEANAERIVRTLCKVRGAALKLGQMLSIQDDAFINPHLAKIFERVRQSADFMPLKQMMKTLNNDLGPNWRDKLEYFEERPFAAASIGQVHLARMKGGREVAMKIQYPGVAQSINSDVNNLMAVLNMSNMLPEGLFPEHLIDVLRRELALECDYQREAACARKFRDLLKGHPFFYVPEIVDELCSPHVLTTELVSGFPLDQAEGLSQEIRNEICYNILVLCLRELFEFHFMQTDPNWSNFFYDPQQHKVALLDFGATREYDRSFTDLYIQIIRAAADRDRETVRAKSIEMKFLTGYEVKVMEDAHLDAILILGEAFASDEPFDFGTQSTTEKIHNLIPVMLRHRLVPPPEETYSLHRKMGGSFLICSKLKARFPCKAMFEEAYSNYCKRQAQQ
UniProt P30291: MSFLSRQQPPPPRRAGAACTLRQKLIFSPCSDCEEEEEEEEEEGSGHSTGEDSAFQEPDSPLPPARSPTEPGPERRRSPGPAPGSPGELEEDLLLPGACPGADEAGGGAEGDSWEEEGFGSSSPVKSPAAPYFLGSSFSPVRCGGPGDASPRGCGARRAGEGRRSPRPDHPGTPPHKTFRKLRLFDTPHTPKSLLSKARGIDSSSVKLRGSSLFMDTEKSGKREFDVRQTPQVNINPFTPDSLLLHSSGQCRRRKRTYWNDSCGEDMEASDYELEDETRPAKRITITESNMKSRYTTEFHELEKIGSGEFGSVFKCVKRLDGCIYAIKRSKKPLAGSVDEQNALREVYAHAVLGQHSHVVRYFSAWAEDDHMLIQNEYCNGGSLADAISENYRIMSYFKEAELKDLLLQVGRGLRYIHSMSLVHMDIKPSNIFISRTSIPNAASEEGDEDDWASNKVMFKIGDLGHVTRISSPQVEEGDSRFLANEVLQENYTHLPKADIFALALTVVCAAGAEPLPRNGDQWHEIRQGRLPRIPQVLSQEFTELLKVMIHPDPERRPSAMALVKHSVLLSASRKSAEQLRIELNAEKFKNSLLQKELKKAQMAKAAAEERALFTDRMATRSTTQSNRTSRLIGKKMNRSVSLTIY
UniProt Q15831: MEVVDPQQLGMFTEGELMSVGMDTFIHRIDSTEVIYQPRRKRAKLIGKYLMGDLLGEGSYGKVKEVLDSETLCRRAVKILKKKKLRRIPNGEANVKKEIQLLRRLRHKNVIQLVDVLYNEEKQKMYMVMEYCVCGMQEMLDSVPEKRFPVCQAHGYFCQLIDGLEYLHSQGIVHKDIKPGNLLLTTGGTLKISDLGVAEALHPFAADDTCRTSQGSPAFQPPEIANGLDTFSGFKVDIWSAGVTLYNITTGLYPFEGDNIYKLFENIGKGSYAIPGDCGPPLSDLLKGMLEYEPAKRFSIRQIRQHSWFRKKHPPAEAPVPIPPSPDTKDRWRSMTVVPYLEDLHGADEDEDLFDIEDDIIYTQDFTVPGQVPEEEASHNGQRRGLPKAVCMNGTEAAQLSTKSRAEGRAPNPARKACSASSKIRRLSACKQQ
UniProt Q6P3R8: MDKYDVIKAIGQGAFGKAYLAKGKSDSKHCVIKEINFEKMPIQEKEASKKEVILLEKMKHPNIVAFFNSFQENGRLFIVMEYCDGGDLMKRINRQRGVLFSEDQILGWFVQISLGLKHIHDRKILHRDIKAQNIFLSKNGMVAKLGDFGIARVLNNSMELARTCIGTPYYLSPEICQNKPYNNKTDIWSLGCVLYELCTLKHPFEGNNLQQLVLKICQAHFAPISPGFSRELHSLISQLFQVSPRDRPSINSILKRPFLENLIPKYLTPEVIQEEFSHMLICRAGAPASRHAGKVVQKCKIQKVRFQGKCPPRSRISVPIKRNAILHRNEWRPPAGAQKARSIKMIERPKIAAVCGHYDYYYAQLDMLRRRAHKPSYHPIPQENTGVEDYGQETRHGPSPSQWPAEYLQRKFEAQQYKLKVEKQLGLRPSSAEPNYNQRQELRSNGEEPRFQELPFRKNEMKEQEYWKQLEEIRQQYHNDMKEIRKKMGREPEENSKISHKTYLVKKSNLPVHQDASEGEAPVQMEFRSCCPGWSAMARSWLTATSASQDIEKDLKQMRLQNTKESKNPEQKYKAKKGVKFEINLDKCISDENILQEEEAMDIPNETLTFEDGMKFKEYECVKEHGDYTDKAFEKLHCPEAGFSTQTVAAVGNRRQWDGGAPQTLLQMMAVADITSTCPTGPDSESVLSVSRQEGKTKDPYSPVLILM

SMILES: COc1cc2c(Nc3ccc(Cl)c(OC)n3)c(C#N)cnc2cc1OCCON1CCN(C)CC1 [16a, 4-((5-Chloro-6-methoxypyridin-2-yl)amino)-6-methoxy-7-(2-((4-methylpiperazin-1-yl)oxy)ethoxy)quinoline-3-carbonitrile]
- remaining activity at 1 µM [1]: 70%
- remaining activity at 1 µM [2]: 2%
- remaining activity at 1 µM [3]: 55%
- remaining activity at 1 µM [4]: 96%
- remaining activity at 1 µM [5]: 0.5%
- remaining activity at 1 µM [6]: 90%
- remaining activity at 1 µM [7]: 27%
- remaining activity at 1 µM [8]: 96%
- remaining activity at 1 µM [9]: 100%
- remaining activity at 1 µM [10]: 12%
- remaining activity at 1 µM [11]: 64%
- remaining activity at 1 µM [12]: 26%
- remaining activity at 1 µM [13]: 5.5%
- remaining activity at 1 µM [14]: 35%
- remaining activity at 1 µM [15]: 100%
- remaining activity at 1 µM [16]: 100%
- remaining activity at 1 µM [17]: 42%
- remaining activity at 1 µM [18]: 7%
- Percent Control [19]: 18
- remaining activity at 1 µM [20]: 11%
- remaining activity at 1 µM [21]: 59%
- remaining activity at 1 µM [22]: 24%
- remaining activity at 1 µM [23]: 72%
- remaining activity at 1 µM [24]: 81%
- remaining activity at 1 µM [25]: 56%
- remaining activity at 1 µM [26]: 46%
- remaining activity at 1 µM [27]: 100%
- remaining activity at 1 µM [28]: 12%
- remaining activity at 1 µM [29]: 17%
- remaining activity at 1 µM [30]: 2.6%
- remaining activity at 1 µM [31]: 61%
- remaining activity at 1 µM [32]: 97%
- remaining activity at 1 µM [33]: 99%
- remaining activity at 1 µM [34]: 64%
- remaining activity at 1 µM [35]: 0.65%
- remaining activity at 1 µM [36]: 14%
- remaining activity at 1 µM [37]: 1.4%
- remaining activity at 1 µM [38]: 100%
- remaining activity at 1 µM [39]: 100%
- remaining activity at 1 µM [40]: 68%
- remaining activity at 1 µM [41]: 96%
- remaining activity at 1 µM [42]: 100%
- remaining activity at 1 µM [43]: 22%

— article PMC11472320, “Computationally Driven Discovery of a BCR-ABL1 Kinase Inhibitor with Activity in Multidrug-Resistant Chronic Myeloid Leukemia” (Journal of Medicinal Chemistry, 2024)
